Reference: patent publication CN117384281A (DONGGUAN PENGZHI BIOTECHNOLOGY CO LTD, dated 2024)

Sequences of proteins named here, by UniProt entry; tags and fusion partners are left off. Residues count along the entry.
UniProt P69905, 2-142 limits assumed, chain 1 of 2: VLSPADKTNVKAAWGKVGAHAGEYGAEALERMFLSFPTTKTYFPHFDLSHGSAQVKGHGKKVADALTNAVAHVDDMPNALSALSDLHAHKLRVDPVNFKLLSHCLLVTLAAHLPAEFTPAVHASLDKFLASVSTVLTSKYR
人糖化血红蛋白(购自英美特，货号KAY0025), UniProt P68871, 2-147 limits assumed, chain 2 of 2: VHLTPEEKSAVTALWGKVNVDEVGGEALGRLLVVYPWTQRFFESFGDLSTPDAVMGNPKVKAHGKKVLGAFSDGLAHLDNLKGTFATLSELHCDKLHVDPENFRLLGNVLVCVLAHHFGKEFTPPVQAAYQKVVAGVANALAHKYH

B1: Anti-HbA1C 17C9mut2 (antibody, V domains shown)
VH: QVQLEESGPGLVAPSQSLSITCTVSGFSLTSYGVHWVRQPPGKGLEWLGVIWAGGSTNYNSALMSRLTISKDNSKRQVFLKMNSLQTDDTAMYYCARDYYGYDFVYWGQGTLVTVSA
VL: DIVLTQSPATLSVTPGDSVSLSCRASQSVRNNLHWYQQKSHESPRLLIKYASQSISGIPSRFSGSGSGTNFTLSINTVETEDFGMYFCQQSNSWPLTFGAGTKLELKR
B2: Anti-HbA1C 17C9mut1 (antibody, mouse IgG1, kappa, V domains shown)
VH: QVQLEESGPGLVAPSQSLSITCTVSGFSLTSYGVHWVRQPPGKGLEWLGVIWAGGSTNYNSALMSRLTISKDNSKRQVFLKMNSLQTDDTAMYYCARDYYGYDFVYWGQGTLVTVSA
VL: DIVLTQSPATLSVTPGDSVSLSCRASQSVRNNLHWYQQKSHESPRLLIKYASQSISGIPSRFSGSGSGTDFTLSINTVETEDFGMYFCQQSNSWPLTFGAGTKLELKR
notes: Detected with goat anti-mouse IgG-HRP and captured on AMC sensors

How the values were obtained:
[1] = target: 人糖化血红蛋白(购自英美特，货号KAY0025) (人 (human)) (UniProt P69905); experiment: ELISA, antigen coated at 5 ug/ml, antibody at 250 ng/ml, goat anti-mouse IgG-HRP
[2] = target: 人糖化血红蛋白(购自英美特，货号KAY0025) (人 (human)) (UniProt P69905); experiment: ELISA, antigen coated at 5 ug/ml, antibody at 0 ng/ml (blank), goat anti-mouse IgG-HRP
[3] = target: 人糖化血红蛋白(购自英美特，货号KAY0025) (人 (human)) (UniProt P69905); experiment: ELISA, antigen coated at 5 ug/ml, antibody at 62.5 ng/ml, goat anti-mouse IgG-HRP
[4] = target: 人糖化血红蛋白(购自英美特，货号KAY0025) (人 (human)) (UniProt P69905); experiment: ELISA, antigen coated at 5 ug/ml, antibody at 125 ng/ml, goat anti-mouse IgG-HRP
[5] = target: 人糖化血红蛋白(购自英美特，货号KAY0025) (人 (human)) (UniProt P69905); experiment: ELISA, antigen coated at 5 ug/ml, antibody at 31.25 ng/ml, goat anti-mouse IgG-HRP
[6] = target: 人糖化血红蛋白(购自英美特，货号KAY0025) (人 (human)) (UniProt P69905); experiment: ELISA, antigen coated at 5 ug/ml, antibody at 1000 ng/ml, goat anti-mouse IgG-HRP
[7] = target: 人糖化血红蛋白(购自英美特，货号KAY0025) (人 (human)) (UniProt P69905); experiment: BLI, antibody captured on AMC sensor, antigen in graded dilutions in PBST
[8] = target: 人糖化血红蛋白(购自英美特，货号KAY0025) (人 (human), UniProt P69905 2-142; P68871 2-147, 糖化 (HbA1c: 与葡萄糖结合); site not given); experiment: as above

Molecule	OD值 (OD 450nm (参考630nm)) [1]	OD值 (OD 450nm (参考630nm)) [2]	OD值 (OD 450nm (参考630nm)) [3]	OD值 (OD 450nm (参考630nm)) [4]	OD值 (OD 450nm (参考630nm)) [5]	OD值 (OD 450nm (参考630nm)) [6]	Kd [7]	koff [7]	kon [7]	Kd [8]	koff [8]	kon [8]
对照 (antibody)	1.1	0.066	0.491	0.899	0.289	1.82	322 nM	0.000997 s⁻¹	3100 M⁻¹ s⁻¹			
B1										29.4 nM	0.000524 s⁻¹	17800 M⁻¹ s⁻¹
B2										29.3 nM	0.000531 s⁻¹	18100 M⁻¹ s⁻¹
